Ab-14 light chain CDR variants: yeast mating affinities

Reference: Engelhart et al. 2022, doi:10.1038/s41597-022-01779-4. File: FLAb, binding data.

Target peptide (SARS-CoV-2 spike, HR2 region): PDVDLGDISGINAS

Parent scFv Ab-14: VH joined to VL by the linker GGGGSGGGGSGGGGS. Changes lie in the light chain CDRs alone.
VH: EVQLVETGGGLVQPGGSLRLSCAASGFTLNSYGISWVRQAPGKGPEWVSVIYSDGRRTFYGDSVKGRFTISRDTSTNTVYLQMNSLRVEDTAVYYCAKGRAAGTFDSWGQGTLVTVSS
VL: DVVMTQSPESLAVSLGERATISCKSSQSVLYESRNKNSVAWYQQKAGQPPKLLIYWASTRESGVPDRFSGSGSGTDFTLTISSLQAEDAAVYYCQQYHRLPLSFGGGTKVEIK

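The parent was found by panning a naive human phage display library on the peptide. In library AAYL50, one, two or three CDR residues were substituted; doubles and triples were drawn at random. AlphaSeq pools MATa yeast showing the antibodies with MATalpha yeast showing the peptide. Mating (16 h, 30 °C) was followed by selection of diploids and sequencing of their barcodes. Scores were corrected for input abundance and mapped to Kd with protein pairs of known affinity run in the same pool. There are three technical replicates.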

Variants are written as CDR1, CDR2 and CDR3 of the light chain (limits as in the source). Parent: KSSQSVLYESRNKNSVA, WASTRES, QQYHRLPLS.
Scale: log10 of Kd in nM, estimated from mating counts; low values are strong binders.
A mean of the replicates is given; it leaves out those without a signal.
An entry "nd" has no value in the source: the pair was not observed among the diploids in any replicate. This suggests poor binding but is not conclusive.
Nonspecific signal, from three strains lacking the peptide, appeared in 18% of pairings of library AAYL50, centred on 4.19 (5% of these signals below 2.99); values are not corrected for it.
For reference, the parent read 0.65 as the reference entry and 1.68 as a member of this library.

CDR-L1,CDR-L2,CDR-L3,"mean, log10 nM",seen in
KCSQSVLYYSRNKASVA,WASTRES,QQYHRLPLS,1.32,3/3
KSSQSVLYESRNKNSVS,WASTREY,QQYHRLPLS,nd,0/3
PSMQSVLYESRNKPSVA,WASTRES,QQYHRLPLS,5.89,1/3
KSSQSDLYEIRNKWSVA,WASTRES,QQYHRLPLS,1.75,3/3
KASQSVGYESRNKNSVA,WASTRES,QQYHRLPLS,0.83,3/3
KGSQSVLYESRNKNSVA,WASTREI,QVYHRLPLS,2.42,2/3
KSSQSVLYEHRNKNSVA,WARTQES,QQYHRLPLS,2.77,1/3
KSSQSVLYGSRNKNSVA,WASTRES,QQYHPLPLS,nd,0/3
KSSQSVLYESRNKNYSA,WAYTRES,QQYHRLPLS,nd,0/3
KSSQGVLIESRNKNSVA,WASTRES,QQYHRLPPS,4.66,3/3
TSSQSVLYESHNKNSVA,WASTRES,KQYHRLPLS,nd,0/3
KSDQSVLYESRNKNSVV,WASTRES,QQYHRLHLS,1.97,3/3
KSDQSVLYESDNKNSAA,WASTRES,QQYHRLPLS,3.68,1/3
KSSQSVLYESRNKNLLA,WASTRMS,QQYHRLPLS,2.39,1/3
KSSQSVLYESRSKNDVA,WASTRES,QEYHRLPLS,nd,0/3
KSSQSVLYESRNKNSVA,WASTRES,RQYHRHPYS,nd,0/3
KSSQSVLYERRNWNSVA,WASTRYS,QQYHRLPLS,1.67,3/3
KSDQSVDYESRNKNSVA,WASTRES,KQYHRLPLS,nd,0/3
KSFQSVLYESRNKNSVA,WHSGRES,QQYHRLPLS,nd,0/3
KSSQVVLYESRNKNSVA,WASTRES,QEYCRLPLS,4.19,2/3
KSVQSVLYESRNKNEVA,WASTRES,QQYHRLGLS,2.62,3/3
KSSQSFLYESRNKNSVA,WACTRES,VQYHRLPLS,nd,0/3
KSSQSVSIERRNKNSVA,WASTRES,QQYHRLPLS,nd,0/3
KSSQLVLYESRWKNSVA,WASTREH,QQYHRLPLS,nd,0/3
KSSQSVLYCSYNWNSVA,WASTRES,QQYHRLPLS,nd,0/3
KSSQSVLYCSRNKNSVA,WASTRES,QQYHLLPKS,2.71,3/3
KSSISVLYESRNKNSVA,WASTRES,QQYHTLPLF,2.66,3/3
KSSQSVLYESRNKNSVA,WATKRES,QQYHRLPLY,2.04,3/3
KSSQSVLYESRNKNSMA,WAWTRES,QQYHRLPLS,3.24,3/3
CSSQSVLYESRNKNSVA,WASTRES,YQYHRLPHS,2.95,3/3
KSSQSVLWKSRNKGSVA,WASTRES,QQYHRLPLS,3.38,3/3

Continued, with the values leading:

"mean, log10 nM",seen in,CDR-L1,CDR-L2,CDR-L3
4.71,1/3,KSSQSVLYESRNKNSVA,WASTRES,QQYRYVPLS
nd,0/3,KSSQSVLYESRNKNSVA,WASTEES,QQYHRLQHS
5.03,1/3,KSSQSVLYESRGKNSKA,WASTRES,KQYHRLPLS
4.29,1/3,KSSQSVLYESRNKNSVA,IPSTRES,QQYHRLPPS
4.69,2/3,KSSQSVLYESRGKNSVA,WFSTRES,QEYHRLPLS
4.05,2/3,KSSRSVLYESRNKSSVA,WASTGES,QQYHRLPLS
0.81,3/3,KSFQWVLYESRNVNSVA,WASTRES,QQYHRLPLS
3.52,1/3,KSSQSVAYESRNKNSFA,WASTRES,QQYHREPLS
0.20,3/3,KSSQSVLYEQRNKNSVA,GASTRIS,QQYHRLPLS
3.46,2/3,KSLQSVLYWSRNKNSVA,WASTRES,QQDHRLPLS
nd,0/3,KSSQSVLYESRNKNSVA,WASTRES,WQKHRLPMS
3.79,1/3,ESSQSVLYESRNKNSVA,WASPRES,KQYHRLPLS
1.35,3/3,KSSQSVLYESRRKNSVA,WASTRET,LQYHRLPLS
0.11,3/3,KSSQSVSYESCNKNSVA,DASTRES,QQYHRLPLS
1.65,3/3,KDSQSVLYESRNKNDVA,WASTRES,QQYHWLPLS
nd,0/3,KSSQSVLYESRNKNSVA,WASFRES,QFVHRLPLS
2.52,1/3,KPSQSVLKESRNKNSVA,WATTRES,QQYHRLPLS
2.53,3/3,NSSQSVLCESRNKNSVA,WASTRES,QQYHRLELS
nd,0/3,KSSQSVLYESRNKNSVA,PASTRES,QQYHRLPPS
nd,0/3,KSSQSVLYEIRNKNSKP,WASTRES,QQYHRLPLS
2.71,3/3,KSSQSVLYEGRNKNDVA,WASTRES,QQCHRLPLS
2.53,1/3,KSSQSLLMESRNKNSWA,WASTRES,QQYHRLPLS
3.20,1/3,KSSQSVLYHARNKNSCA,WASTRES,QQYHRLPLS
4.12,2/3,KISYSVLYESRNKNSVY,WASTRES,QQYHRLPLS
1.89,3/3,KSSQSVLYWSRNKNSVA,WASTRES,QQYHREPLS
4.10,1/3,KSSISVLYESRNKNSVS,WASTYES,QQYHRLPLS
nd,0/3,ISDQSVLYESRNKNSVA,WLSTRES,QQYHRLPLS
-0.34,3/3,ASSQSVTYESRNKNSVA,GASTRES,QQYHRLPLS
4.41,2/3,WSSQRVLYESRNKNSVA,WASTRES,QQSHRLPLS
nd,0/3,KSSQHVLYESRNENSVA,WASTRES,WQYHRLPLS
nd,0/3,KSSQSVLYENRNKNSVA,WASTRES,QGYHRLDLS
4.29,1/3,KSSQSVLYESKNKNSVA,WASTRES,WQYHMLPLS

A selection of 5 entries from above:

CDR-L1,CDR-L2,CDR-L3,"mean, log10 nM",seen in
KSSQSVLYESRNKNSMA,WAWTRES,QQYHRLPLS,3.24,3/3
KDSQSVLYESRNKNDVA,WASTRES,QQYHWLPLS,1.65,3/3
KSSQLVLYESRWKNSVA,WASTREH,QQYHRLPLS,nd,0/3
KSSQSVAYESRNKNSFA,WASTRES,QQYHREPLS,3.52,1/3
KSSQSDLYEIRNKWSVA,WASTRES,QQYHRLPLS,1.75,3/3